The experiment relates to M1R and M3R. The text has this: Muscarinic receptor subtypes were expressed in murine gastric chief cells using M1R^−/−, M3R^−/− and M1/3R^−/− mice. […] The mice were generated using gene targeting.

Consider `C[N+](C)(C)CCOC(N)=O` [carbachol], for which the “decrease in maximal carbachol-induced pepsinogen secretion” value (M1R-/- mouse gastric glands) was “approx. 25%”. Moreover, the “carbachol potency or efficacy, pepsinogen secretion” value (M3R-/- compared to WT mouse gastric glands) is reported as “no difference”. Also, under “glands from M1/3R-/- mice”, the agonist-induced pepsinogen secretion result is “eliminated”.
